# Yeast mating assay B: variants of the scFv Ab-14

Reference: Li et al. 2023, doi:10.1038/s41467-023-39022-2. File: FLAb, binding data.

Target peptide (SARS-CoV-2 spike, HR2 region): PDVDLGDISGINAS

Ab-14 is the parent antibody, in scFv form: VH, then a (GGGGS)3 linker, then VL. The light chain is unchanged in all variants.
VH: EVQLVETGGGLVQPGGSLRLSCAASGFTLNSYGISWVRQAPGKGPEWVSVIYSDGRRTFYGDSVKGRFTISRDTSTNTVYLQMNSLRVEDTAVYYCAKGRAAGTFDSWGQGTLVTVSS
VL: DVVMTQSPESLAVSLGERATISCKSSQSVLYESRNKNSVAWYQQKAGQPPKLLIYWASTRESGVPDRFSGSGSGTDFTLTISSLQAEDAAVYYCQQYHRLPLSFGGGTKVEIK

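The parent was found by panning a naive human phage display library on the peptide. These sequences belong to a second round, designed from the earlier measurements on random variants of the parent. Their group label is 14H_En_HC (En: ensemble of fine-tuned language models; HC: hill climbing; a sequence that several methods proposed may carry one label only). In AlphaSeq, yeast of one mating type display the scFv and yeast of the other type display the target. Pairs that bind mate more often; barcode pairs of the diploids are counted by sequencing. Each replicate has its own calibration line, from reference interactions of the BCL2 family. Mating was done six times.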

The parent's heavy chain CDRs are GFTLNSYGIS, VIYSDGRRTFYGDSVK, GRAAGTFDS; each variant's own CDRs replace them letter for letter. The read-out is the apparent dissociation constant on a log10 scale (nM): the lower, the stronger. Averages over replicates are reported, and they cover detected replicates only. "nd" marks a missing value. The strain was present, yet no cells mated with the target were sequenced in that replicate, which points to weak or no binding.

CDR-H1	CDR-H2	CDR-H3	log10 Kd, replicates	mean, log10 nM	control signals
GFDLNEYGIS	VIYADGRRTFYTDSVK	GNNAGTFDS	-0.30 -0.69 -0.49 -0.95 -0.72 -0.55	-0.62	0 of 18
GFDLNEYGIS	VIYADGRRTFYADSVK	GQIAGTFDM	nd -0.69 nd 0.85 nd nd	0.08	0 of 18
GFDLDEYGIS	VIYADGRRTFYADSVK	GSTAGTFDV	-0.44 -0.54 -0.80 -0.83 -0.80 -0.41	-0.64	0 of 18
GFDLNEYGIS	VIYADGRRTFYSDKVK	GNQGGTFDI	nd nd -0.19 0.77 0.01 1.16	0.44	0 of 18
GFDLNEYGIS	VIYADGRRTFYADSVK	GEAAGTFIM	1.62 2.05 1.30 2.01 2.35 1.61	1.82	0 of 18
GFDLNEYGIS	VIYADGQRTFYTDSVK	GGNAGTFDS	0.47 0.20 0.26 0.30 0.54 0.92	0.45	0 of 18
GFDLNEYGIS	VIYADGRRTAYSDSVK	GEVAGTFVT	-0.46 -0.91 -0.80 -0.64 -0.88 -0.07	-0.63	0 of 18
GFDLNEYGIS	VIYADGRRTFYADSVK	GESAGTFDQ	0.66 -0.43 nd -0.80 2.03 0.51	0.40	0 of 18
GFDLNEYGIS	VIYADGRRTQYIDSVK	GNEAGTFDQ	-0.08 -0.32 -0.45 -0.52 -0.15 0.46	-0.18	2 of 18 (1.00)
GFDLNEYGIS	VIYADGRRTQYIDSVK	GETAGTFDQ	nd nd nd nd nd nd	nd	1 of 18 (2.86)
GFQLDEYGIS	VIYADGMRTFYQDSVK	GEVAGTFDS	0.22 0.41 0.41 0.58 -0.08 0.19	0.29	0 of 18
GFDLNEYGIS	VIYADGVRTFYADSVK	GEAAGSFDQ	0.47 0.75 1.13 1.15 0.31 nd	0.76	1 of 18 (1.64)
GFDLNEYGIS	VIYADGMRTSYADSVK	GQNAGTFDQ	0.37 nd -0.12 -0.83 -1.13 -0.30	-0.40	0 of 18
GFDLDEYGIS	VIYADGRRTFYQDSVK	GNVAGTFDA	-0.57 -1.12 -1.03 -0.86 -1.04 -1.65	-1.05	0 of 18
GFDLDEYGIS	VIYADGRRTFYIDSVK	GETAGTFDK	-0.22 -0.02 0.12 -0.06 -0.15 0.37	0.01	0 of 18
GFDLDEYGIS	VIYADGRRTFYKDSVK	GSNAGTFDI	0.54 0.36 0.99 0.17 nd 0.58	0.53	0 of 18
GFDLNEYGIS	VIYADGRRTFYADSVK	GTAGGTFDM	0.05 0.17 -0.27 0.25 0.22 0.34	0.13	0 of 18
GFDLNEYGIS	VIYADGRRTAYVDSVK	GQVAGTFNV	-0.06 -0.38 -0.82 -0.41 -0.42 -0.42	-0.42	0 of 18
GFDLNEYGIS	VIYADGKRTFYSDSVK	GNIGGTFDV	-0.04 -0.08 0.17 -0.18 -0.18 -0.07	-0.06	1 of 18 (2.09)
GFGLDEYGIS	VIYADGRRTAYADSVK	GENAGTFDM	-0.61 -0.65 -0.03 -0.39 -0.62 -0.16	-0.41	0 of 18
GFDLNEYGIS	VIYADGRRTFYTDSVK	GEFAGTFDV	0.01 -0.21 -0.38 -0.47 -0.48 0.10	-0.24	0 of 18
GFNLNEYGIS	VIYADGRRTFYADSVK	GEAAGTFDS	-0.09 -0.47 -0.26 -0.22 -0.46 -0.15	-0.27	0 of 18
GFDLNDYGIS	VIYADGRRTAYIDSVK	GEVAGTFDD	-0.01 -0.38 -0.56 -0.85 -0.40 -0.33	-0.42	0 of 18
GFSLDEYGIS	VIYADGRRTFYADSVK	GNVAGTFDK	-0.86 -1.39 -0.85 -1.49 -1.61 -0.74	-1.16	0 of 18
GFDLNEYGIS	VIYADGRRKYYADSVK	GENAGTFDV	-0.23 -0.44 -0.67 -0.84 -0.57 -0.71	-0.57	1 of 18 (1.42)
GFNLNEYGIS	VIYADGRRTFYADSVK	GEIAGTFIQ	0.12 -0.14 0.26 -0.15 -0.20 0.17	0.01	2 of 18 (1.50)
GFDLNEYGIS	VIYADGRRTFYIDSVK	GEVAGTFDV	-0.61 -0.83 -1.02 -0.80 -0.25 -0.61	-0.69	0 of 18
GFDLNEYGIS	VIYADGRRTQYIDSVK	GNNAGTFDS	-0.22 -0.12 -0.42 -0.46 -0.51 -0.54	-0.38	0 of 18
GFDLNEYGIS	VIYADGRRTAYIDSVK	GEVAGTFDK	-0.56 0.14 -0.82 -0.98 -0.60 -0.59	-0.57	0 of 18
GFDLNEYGIS	VIYADGRRTYYADSVK	GNQAGTFDS	-0.86 -0.02 nd -1.02 -0.27 -0.09	-0.45	0 of 18

The parent sequence was in this pool as ten entries: three were never detected, three once, and four in most replicates, with averages from 0.34 to 2.37. Nonspecific signal, from three strains lacking the peptide, appeared in 1% of pairings of all heavy chain designs, centred on 2.08 (5% of these signals below 0.84); values are not corrected for it. For each scFv, signals with the empty controls are counted beside the result, with their mean in brackets. Values of this round are not directly comparable with the first-round values of the same sequences. In the paper, a design with two or fewer of six values counts as a poor binder.